Measured values: publication doi:10.1101/2025.02.26.640323, “Aggregation-Dependent Epitope Sequence and Modification Fingerprints of Anti-Aβ Antibodies” (bioRxiv, 2025)

Tests used:
[1] = test system: Aβ phosphorylated at Ser(8); test: PTM-Aβ microarray, pSer8; type: binding, human; details: optimized antibody concentrations (Aducanumabbs 0.02μg/mL; 1E4E11 0.25μg/mL), vs unphosphorylated
Source text: Specific PTMs might be associated with different stages of AD progression and severity, offering potential biomarkers for diagnosis and prognosis. Targeting PTMs represents a potential therapeutic strategy to prevent Aβ aggregation and neurotoxicity, thereby slowing disease progression. […] Therefore, a selected group of PTM-carrying Aβ peptides (PTM-Aβ) were incorporated into the Aβ chip to explore the potential binding preference of selected Aβ-Abs, under optimized concentrations (Figure 3). The antibodies were tested with both PTM-Aβ and the corresponding unmodified variants to provide a head-to-head comparison. This screening was performed in the presence of Aβ phosphorylated at positions Ser(8) or Ser(26), N-terminal pE at position 3, racemization/isomerization of Asp at position 1, and unmodified N-terminal variants. The dataset is divided into sections (Figure 3 a–f) for enhanced visualization, where each antibody was screened simultaneously against all peptides to locate their epitope preferences. […] A set of antibodies without reported PTM preference was applied here as controls (refer to Table 1), namely 11H3, 101–1-1, IC16, 82E1 and 3D6.
Figure 3. […] Blue and red shades indicate the binding strength over the related arrayed […] modified peptide shown on top and cognate anti-Aβ antibody to the left. […]

[2] = test system: Aβ1–15 H6R ([…]); test: Dot blot of purified 6xHis peptides; type: binding; details: dot blot / on-chip titration, 2-fold dilutions of peptide, goat anti-human DL650 fluorescence, vs wildtype
Experimental: (§1) Figure 2 – figure supplement 2. […] (a) Dot Blot from the purified 6xHis peptides […] and […] were printed using Slide Spotter robot.
The purified peptides were printed onto white-coated CelluSpot blank slides using the Slide Spotter at a starting amount of 0.05 μg. The slides were allowed to dry for 3 hours and rinsed once with 1X PBS to remove the unbound peptides. […] The fluorescence signal readouts were acquired using Amersham Image Quant 800 (GE Healthcare) with an exposure time of 30 seconds and 4×4 binning.

[3] = test system: Aβ vascular and parenchymal deposits in AD brain sections; test: Immunohistochemistry on AD brain tissue with antibody pre-adsorption; details: Lecanemabbs (PX-TA1746) 0.06 μg with 0.25 μg, human AD brain
Experimental: Immunohistochemistry was performed on 4-μm paraffin sections. In brief, brain sections were deparaffinized in Roticlear (Carl Roth, Karlsruhe, Germany) and rehydrated in a descending series of ethanol. Activity of endogenous peroxidases was blocked by incubation in 0.3% H2O2 in PBS for 30 min. […] Antibodies and peptides were incubated on a rotator for 3 h at room temperature and reaction tubes were centrifuged at 13000 rpm for 5 min at the end of the incubation period. Control conditions included antibodies in 0.01 M PBS including 10% FCS without synthetic peptides. Adjacent paraffin-embedded sections from a human AD case were incubated overnight with the supernatants and sections were washed with 0.01 M PBS including 0.1 % Tergitol. For detection, biotinylated anti-human antibodies (6 μg/ml, Jackson ImmunoResearch, West Grove, Pennsylvania, USA #109-065-003) were used and staining was visualized with the ABC method with a Vectastain kit (Vector Laboratories, Newark, California, USA), diaminobenzidine as a chromogen and counterstaining with hematoxylin.

[4] = test system: Aβ(1–15, H6R) ([…]); test: Biolayer interferometry, H6R peptide; type: binding, human; details: Aducanumabbs 10nM, NTA biosensor-loaded 6xHis peptide, PBS pH 7.4, 0.2% BSA, 0.02% Tween 20, 30 °C; vs wildtype
Experimental: as §1
The samples were dispensed into a 96 microplate (Greiner bio-one GmbH, Frickenhausen, Germany) at a final volume of 200 μL. […] The peptides were synthesized (purity above 98% - based on UV at 215nm) with Fmoc-Adoa linker (Iris - FAA1435) and C-terminal 6xHis tag. Sensorgrams were measured in double reference against the buffer and the reference sensor signals.
NTA biosensors (Sartorius, Göttingen, Germany) were preincubated into 1XPBS buffer pH 7.4, 0.2% BSA, 0.02% (v/v) Tween 20 for 10 min. A first baseline was established in the same buffer. The 6xHis peptides were loaded onto NTA biosensors at 20 μg/ml for 200 s. Following a buffer wash of 120s, the biosensors were incubated with serial-dilutions of the respective antibodies for 1200s s to measure association and then into buffer for additional 1500s to observe the dissociation phase. Experiments were performed at 30 °C and sample plates were shaken at 1000 rpm. Sensorgrams were globally fitted using Data Analysis software version 12.0.2.3 (Sartorius, Göttingen, Germany) with a 1:1 binding model.

Substance: Aducanumabbs: human monoclonal, biosimilar of Aducanumab, Proteogenix (#PX-TA1335)
- preference for pSer8 Aβ [1]: showed preference for Aβ peptide fragments phosphorylated at Ser(8); also recorded: preference of Aducanumabbs for phosphorylated pSer8-Aβ(−1–14) and pSer8-Aβ1–15 over unphosphorylated Aβ-related 15-mers; also recorded: high selectivity for phosphorylated pSer8-Aβ1–15 over unphosphorylated Aβ1–15
- binding strength for H6R Aβ1–15 variant [2]: reduced binding strength of Aducanumabbs for the H6R Aβ1–15 variant
- IHC immunoreactivity after pre-adsorption with Aβ1–42 fibrils ([3]; Aducanumabbs 0.5 μg with 5 μg fibrils, antibody for IHC: Aducanumabbs 0.5 μg/μl (so in the source)): largely blocked
- IHC immunoreactivity after pre-adsorption with Aβ1–42 monomers ([3]; Aducanumabbs 0.5 μg with 10 μg monomers): in contrast to pre-adsorption with an excess of Aβ1–42 monomers
- BLI response for H6R [4]: completely abolished

Entries after “also recorded” stand apart in the source; their conditions may differ.
